In US6583179B2, “Substituted aminoalkylamide derivatives as antagonists of follicle stimulating hormone” (Ortho-McNeil Pharmaceutical, Inc., priority 1999, dated 2003) one finds EC50 data, which are given here for 45 molecules.

The chains behind the UniProt entries cited, without tags or fusion partners. Residues count along the entry.
UniProt P23945, 18-695 limits assumed: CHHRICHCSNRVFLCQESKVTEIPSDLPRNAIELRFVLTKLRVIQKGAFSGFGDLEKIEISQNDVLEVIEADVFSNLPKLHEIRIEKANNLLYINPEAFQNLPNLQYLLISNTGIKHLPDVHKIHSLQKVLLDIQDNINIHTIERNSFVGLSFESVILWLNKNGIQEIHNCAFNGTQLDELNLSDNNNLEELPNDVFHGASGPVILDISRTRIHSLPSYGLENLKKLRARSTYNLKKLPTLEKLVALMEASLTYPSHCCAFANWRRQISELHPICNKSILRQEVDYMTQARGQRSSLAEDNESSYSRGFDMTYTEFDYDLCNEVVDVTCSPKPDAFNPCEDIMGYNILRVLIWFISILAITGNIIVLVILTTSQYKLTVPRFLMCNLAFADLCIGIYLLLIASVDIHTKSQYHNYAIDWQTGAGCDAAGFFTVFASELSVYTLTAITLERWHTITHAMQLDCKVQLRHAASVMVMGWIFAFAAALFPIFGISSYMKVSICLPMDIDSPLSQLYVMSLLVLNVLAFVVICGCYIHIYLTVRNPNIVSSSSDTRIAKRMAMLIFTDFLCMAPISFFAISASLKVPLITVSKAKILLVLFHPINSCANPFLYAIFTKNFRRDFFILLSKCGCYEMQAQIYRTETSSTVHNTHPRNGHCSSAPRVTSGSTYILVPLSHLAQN

In general, EC50 refers to the concentration at which the effect is half-maximal.

The target of one experiment is human FSH receptor (Homo sapiens, UniProt P23945). The experiment can be described thus: hFSHR CHO cAMP assay (rhFSHR-cLUC cells, FSH-stimulated cAMP, radioimmunoassay). The following applies: read-out: EC50 hFSHR CHO cAMP; inhibition of cAMP produced by EC70 dose of FSH (4.85 nM); maximum concentration 50 μM.
The next experiment deals with Rat Granulosa Cell. The experiment can be described thus: Rat granulosa cell FSH-stimulated cAMP production. The following applies: read-out: Rat Granulosa Cell EC50 cAMP; inhibition of cAMP produced by EC70 dose of FSH (1.4 nM); maximum concentration 50 μM. The protocol:
Insulin, diethylstilbesterol, androstenedione, forskolin and DMSO were purchased from Sigma (St. Louis, Mo.). Fungizone, penicillin/streptomycin, charcoal-treated heat inactivated fetal bovine serum (CT-HI-FBS) and Dulbecco's Modified Eagle Medium:Hams F12 medium containing 15 mM Hepes and L-glutamine (DMEM:F12), were purchased from GIBCO BRL (Grand Island, N.Y.).
Ovine FSH (NIADDK-oFSH-17; FSH potency=20 NIH-FSH-S1 U/mg; LH contamination=0.04 times NIH-LH-S1) was received from Ogden Bioservices Corporation, Rockville, Md. Human FSH (Fertinex), was purchased from Serono Pharmaceutical (Framingham, Mass.). Human chorionic gonadotropin (hCG) was purchased from Sigma (St Louis, Mo.).
Immature intact female rats (Wistar-derived strain; 21-23 days old) were implanted with a single pellet (Innovative Research of America, Sarasota, Fla.) containing 2.5 mg diethylstilbesterol (DES) for 3 days. On the third day, the animals were sacrificed, the ovaries were removed, and the granulosa cells were isolated essentially as described in Haynes-Johnson et al., Biol. Reprod., 61 (1), 147-153, (1999). Granulosa cells were plated at a density of 300,000 cells per ml with 0.2 ml added to each well of 96 well culture dishes (Corning, N.Y.). Cultures were incubated at 37° C. in a humidified incubator (95% air, 5% CO2) overnight (18 hours).
Androstenedione (100,000X) was prepared by dissolving the steroid in 100% ethanol, and was subsequently diluted to a final concentration of 10^−7M containing 0.1% ethanol in assay media. The assay media was serum-free, DES-free, insulin-free media, prepared by adding 5 mL pen-strep,1.5 mL fungizone and 5 μL androstenedione to 493.5 mL DMEM F-12 media.
Test compounds were solubilized in 30% dimethyl sulfoxide (DMSO) at a concentration of 10 mM before diluting to appropriate concentrations in assay medium. The final DMSO concentration in the treated cells and in the control cells was 0.75%.
Test plates containing the granulosa cells were preincubated for 18 hours at 37° C. with 95% air, 5% CO2, 100% humidity. The spent media was removed and 50 μl assay media (DMEM:F12) containing 2 mM IBMX (3-isobutyl-1-methyl-xanthine) was added to the cells. Compounds (25 μl) in the appropriate concentration were added followed 5 minutes later by an EC70 dose of FSH (25 μl; 50 ng/ml; 1.4 nM). After 30 minutes @ 22.5° C. (room temperature) the reaction was terminated by addition of 25 μL 0.5 N hydrochloric acid to each well. The amount of cAMP produced was measured by radioimmunoassay in a FlashPlate (DuPont, Boston, Mass.). To each flash plate 60 μL flash plate buffer was added followed by 40 μL acidified cell sample or cAMP standard, followed with the addition of 100 μl ^125l-cAMP trace. The FlashPlates were sealed, incubated overnight @ room temperature, and counted in a Packard TopCount (Packard Instrument Co., Meriden, Conn.). The cAMP radioimmunoassay results were calculated using DPM conversion and log-logit transformation of % binding (Excel program).
(cAMP levels reflect the balance of adenylyl cyclase and phosphodiesterase activity.)

Take `COc1ccccc1CN(CC(=O)NCC1CCC(CN)CC1)S(=O)(=O)c1ccc2ccccc2c1` (stereo not drawn): the figures for the EC50 at human FSH receptor and in the experiment on Rat Granulosa Cell were 3.92 µM and 2.85 µM, respectively.
The corresponding values for `COc1ccccc1CCN(CC(=O)N[C@H]1CC[C@H](N)CC1)S(=O)(=O)c1ccc(-c2c(C)noc2C)cc1` are 5.5 µM and 1.45 µM.
The corresponding values for `COc1ccccc1CN(CC(=O)NCC1CCC(CN)CC1)S(=O)(=O)c1ccc([N+](=O)[O-])cc1` (stereo not drawn) are 6.76 µM and 1.27 µM.
As to `COc1ccccc1CN(CC(=O)NCC1CCC(CN)CC1)S(=O)(=O)c1ccc(Cl)s1` (stereo not drawn), the EC50 at human FSH receptor turned out to be 22.1 µM; in the experiment with Rat Granulosa Cell, 1.92 µM.
The corresponding values for `COc1ccccc1CCN(CC(=O)NCc1ccc(CN)cc1)S(=O)(=O)c1cc(Cl)cc(Cl)c1` are 7.53 µM and 2.8 µM.
The corresponding values for `COc1ccccc1CCN(CC(=O)NCc1ccc(CN)cc1)S(=O)(=O)c1ccc(Cl)c(Cl)c1` are 1.24 µM and 2.47 µM.
For the molecule `COc1cccc(CN(CC(=O)NCC2CCC(CN)CC2)S(=O)(=O)c2ccc(-c3ccccc3OC)cc2)c1` (stereo not drawn), the 50% effective concentration (EC50) at human FSH receptor is 3.29 µM; in the experiment with Rat Granulosa Cell, 5.3 µM.
Turning to `COc1ccccc1CN(CC(=O)NCC1CCC(CN)CC1)S(=O)(=O)c1cccc(Cl)c1` (stereo not drawn), the concentration giving a half-maximal response (EC50) on human FSH receptor was found to be 9.88 µM; with Rat Granulosa Cell it was 0.88 µM.
As for `COc1ccccc1CN(CC(=O)NCC1CCC(CN)CC1)S(=O)(=O)Cc1ccccc1` (stereo not drawn), the figures for the concentration for a half-maximal effect (EC50) on human FSH receptor and in the experiment on Rat Granulosa Cell were 33.5 µM and 3.22 µM, respectively.
The corresponding values for `Cc1ccc(-c2ccc(S(=O)(=O)N(CC(=O)NCc3ccc(CN)cc3)C[C@H](C)c3ccccc3)cc2)cc1` [206] are 0.35 µM and 0.91 µM.
Turning to `COc1ccccc1CN(CC(=O)NCC1CCC(CN)CC1)S(=O)(=O)c1ccc(-c2ccc(F)c(Cl)c2)cc1` (stereo not drawn), the EC50 on human FSH receptor turned out to be 1.38 µM; with Rat Granulosa Cell, 0.31 µM.
The corresponding values for `COc1ccccc1CCN(CC(=O)NCc1ccc(CN)cc1)S(=O)(=O)c1ccc(-c2ccccc2)cc1` are 0.84 µM and 5.55 µM.
`COc1ccccc1CN(CC(=O)NCC1CCC(CN)CC1)S(=O)(=O)c1cccc([N+](=O)[O-])c1` (stereo not drawn): the EC50 on human FSH receptor stood at 33.6 µM; in the experiment with Rat Granulosa Cell, 3.7 µM.
The corresponding values for `COc1ccccc1CN(CC(=O)NCC1CCC(CN)CC1)S(=O)(=O)c1ccc(-c2ccc(Cl)cc2)cc1` (stereo not drawn) are 1.16 µM and 2.42 µM.
The corresponding values for `C[C@@H](CN(CC(=O)NCc1ccc(CN)cc1)S(=O)(=O)c1ccc(-c2ccccc2)cc1)c1ccccc1` [197] are 0.36 µM and 0.06 µM.
Regarding `COc1ccc(S(=O)(=O)N(CC(=O)NCC2CCC(CN)CC2)Cc2ccccc2OC)cc1` (stereo not drawn), the EC50 at human FSH receptor amounted to 23.3 µM; with Rat Granulosa Cell it was 5.16 µM.
Regarding `COc1ccccc1CCN(CC(=O)NCc1ccc(CN)cc1)S(=O)(=O)c1cc(Cl)c(Cl)s1`, the EC50 at human FSH receptor was found to be 2.31 µM; in the experiment with Rat Granulosa Cell, 25.1 µM.
The corresponding values for `COc1ccccc1CN(CC(=O)NCCCCCCN)S(=O)(=O)c1ccc(-c2ccccc2OC)cc1` are 1.04 µM and 0.11 µM.
The corresponding values for `COc1ccccc1CN(CC(=O)NCC1CCC(CN)CC1)S(=O)(=O)c1cccc(F)c1` (stereo not drawn) are 5.99 µM and 5.86 µM.
The corresponding values for `COc1ccc(-c2ccc(S(=O)(=O)N(CC(=O)NCC3CCC(CN)CC3)Cc3cccc(OC)c3)cc2)cc1` (stereo not drawn) are 2.23 µM and 1.81 µM.
For the molecule `COc1ccccc1CN(CC(=O)NCC1CCC(CN)CC1)S(=O)(=O)c1c(Cl)cccc1Cl` (stereo not drawn), the 50% effective concentration (EC50) came out at 26.2 µM at human FSH receptor and 1.2 µM with Rat Granulosa Cell.
For the molecule `COc1ccccc1CCN(CC(=O)NCc1ccc(CN)cc1)S(=O)(=O)c1ccc(-c2ccc(F)cc2)cc1`, the half-maximal effective concentration (EC50) at human FSH receptor stood at 0.57 µM; in the experiment on Rat Granulosa Cell it was 0.49 µM.
The corresponding values for `COc1ccccc1CCN(CC(=O)NCc1ccc(CN)cc1)S(=O)(=O)c1ccc2ccccc2c1` are 0.54 µM and 2.95 µM.
For `C[C@H](CN(CC(=O)NCc1ccc(CN)cc1)S(=O)(=O)c1ccc(-c2ccc(F)cc2)cc1)c1ccccc1`, the EC50 stood at 0.15 µM on human FSH receptor and 0.05 µM in the experiment on Rat Granulosa Cell.
As for `COc1ccccc1CCN(CC(=O)N[C@H]1CC[C@H](N)CC1)S(=O)(=O)c1ccc(-c2ccccc2)cc1`, the EC50 was 12.8 µM at human FSH receptor and 10.2 µM in the experiment with Rat Granulosa Cell.
`COc1ccccc1CCN(CC(=O)N[C@H]1CC[C@H](N)CC1)S(=O)(=O)c1ccc(-c2cccc(C(N)=O)c2)cc1`: the 50% effective concentration (EC50) at human FSH receptor was determined as 31.3 µM; with Rat Granulosa Cell it was 8 µM.
The corresponding values for `COc1cccc(-c2ccc(S(=O)(=O)N(CC(=O)NCc3ccc(CN)cc3)C[C@H](C)c3ccccc3)cc2)c1` [201] are 0.41 µM and 0.15 µM.
The corresponding values for `COc1ccccc1CCN(CC(=O)NCc1ccc(CN)cc1)S(=O)(=O)c1cc(Cl)ccc1Cl` are 1.11 µM and 1.01 µM.
In the case of `C[C@H](CN(CC(=O)NCC1CCC(CN)CC1)S(=O)(=O)c1ccc(-c2cccc(F)c2)cc1)c1ccccc1` (stereo partly drawn), the EC50 at human FSH receptor came to 0.34 µM; in the experiment with Rat Granulosa Cell, 0.09 µM.
The corresponding values for `COc1ccccc1CCN(CC(=O)N[C@H]1CC[C@H](N)CC1)S(=O)(=O)c1ccc(-c2ccc(N)cc2)cc1` are 16.7 µM and 0.6 µM.
On to `COc1ccccc1CCN(CC(=O)NCC1CCC(CN)CC1)S(=O)(=O)c1ccc(-c2ccccc2)cc1` (stereo not drawn), for which the EC50 at human FSH receptor was found to be 0.83 µM; in the experiment on Rat Granulosa Cell, 0.2 µM.
The corresponding values for `COc1ccccc1CN(CC(=O)NCC1CCC(CN)CC1)S(=O)(=O)c1cccc(Cl)c1Cl` (single isomer, unassigned) [53] are 29 µM and 3.52 µM.
The corresponding values for `COc1ccccc1CN(CC(=O)NCC1CCC(CN)CC1)S(=O)(=O)c1ccc(-c2cc(C(F)(F)F)cc(C(F)(F)F)c2)cc1` (stereo not drawn) are 1.81 µM and 0.83 µM.
The corresponding values for `COc1ccccc1CCN(CC(=O)NCc1ccc(CN)cc1)S(=O)(=O)c1ccc(-c2cccs2)s1` are 0.96 µM and 2.8 µM.
On to `Cc1ccccc1-c1ccc(S(=O)(=O)N(CC(=O)NCc2ccc(CN)cc2)C[C@H](C)c2ccccc2)cc1` [205], for which the values for the concentration for a half-maximal effect (EC50) at human FSH receptor and with Rat Granulosa Cell were 0.22 µM and 0.05 µM, respectively.
In the case of `COc1ccccc1CN(CC(=O)NCC1CCC(CN)CC1)S(=O)(=O)c1ccc(F)cc1` (stereo not drawn), the EC50 was found to be 6.24 µM at human FSH receptor and 2.15 µM in the experiment with Rat Granulosa Cell.
The corresponding values for `C[C@@H](CN(CC(=O)NCC1CCC(CN)CC1)S(=O)(=O)c1ccc(-c2ccccc2Cl)cc1)c1ccccc1` (stereo partly drawn) are 0.11 µM and 0.11 µM.
The corresponding values for `COc1ccccc1CCN(CC(=O)NCc1ccc(CN)cc1)S(=O)(=O)c1ccccc1Cl` are 1.5 µM and 1.63 µM.
The corresponding values for `COc1ccc(S(=O)(=O)N(CC(=O)NCC2CCC(CN)CC2)Cc2ccccc2OC)c([N+](=O)[O-])c1` (stereo not drawn) are 12.7 µM and 4.58 µM.
`COc1ccccc1-c1ccc(S(=O)(=O)N(CC(=O)NCc2ccc(CN)cc2)C[C@H](C)c2ccccc2)cc1` [200]: the 50% effective concentration (EC50) on human FSH receptor came out at 0.32 µM; with Rat Granulosa Cell, 0.05 µM.
The corresponding values for `COc1cccc(CN(CC(=O)NCC2CCC(CN)CC2)S(=O)(=O)c2ccc(-c3ccc(F)c(Cl)c3)cc2)c1` (stereo not drawn) are 2.3 µM and 1.01 µM.
The corresponding values for `C[C@@H](CN(CC(=O)NCc1ccc(CN)cc1)S(=O)(=O)c1ccc(-c2ccc(F)cc2)cc1)c1ccccc1` [204] are 0.54 µM and 0.19 µM.
Regarding `COc1ccc(-c2ccc(S(=O)(=O)N(CC(=O)NCc3ccc(CN)cc3)C[C@H](C)c3ccccc3)cc2)cc1` [202], the EC50 at human FSH receptor stood at 0.21 µM; with Rat Granulosa Cell, 0.15 µM.
The corresponding values for `COc1ccccc1CCN(CC(=O)NCC1CCC(CN)CC1)S(=O)(=O)c1ccc(-c2cccc([N+](=O)[O-])c2)cc1` (stereo not drawn) are 1.33 µM and 0.49 µM.
Take `COc1ccccc1CN(CC(=O)NCC1CCC(CN)CC1)S(=O)(=O)c1ccc(Cl)c(Cl)c1` (stereo not drawn): the EC50 on human FSH receptor came to 8.92 µM; in the experiment on Rat Granulosa Cell it was 0.72 µM.
